Protein sequences, listed by entry. Tags and fused reporters are not part of them.
UniProt P21453, whole entry: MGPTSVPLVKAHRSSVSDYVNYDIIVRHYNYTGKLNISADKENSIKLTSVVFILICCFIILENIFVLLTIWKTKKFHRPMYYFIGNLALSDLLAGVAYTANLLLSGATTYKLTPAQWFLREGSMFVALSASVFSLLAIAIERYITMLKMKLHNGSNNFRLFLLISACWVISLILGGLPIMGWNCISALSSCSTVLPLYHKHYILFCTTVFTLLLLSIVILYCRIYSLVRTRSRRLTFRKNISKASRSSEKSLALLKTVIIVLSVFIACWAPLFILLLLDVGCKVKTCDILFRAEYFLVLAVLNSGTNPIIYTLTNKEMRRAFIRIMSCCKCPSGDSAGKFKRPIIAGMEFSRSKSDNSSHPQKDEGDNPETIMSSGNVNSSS

According to patent US9181182B2, “S1P receptors modulators” (Akaal Pharma PTY LTD, priority 2008, dated 2015):

Biological target: S1P1 human receptor (Homo sapiens (Human), UniProt P21453)
Experiment: S1P1 [35S]-GTPgamaS binding assay (agonist activity)
Assay type: biochemical
Protocol: Selected Compounds of the Examples were evaluated at Millipore Corporation, USA, using S1P1 receptor; [^35S]-GTPgamaS binding assay. A [^35S]-GTPgamaS binding assay at Millipore was conducted by GPCR Profiler™ Custom Service Laboratory, Temecula, Calif., Millipore, Inc. to monitor dose-dependent agonist selectivity for selected Examples against the S1P1 receptors. The assay was completed with sample compounds subjected to an eight-point, four-fold dose response curve with starting concentration of 10 μM. Selectivity was determined upon initial addition of compounds followed by a 30 minute incubation at 30° C. Following compound incubation, bounded [^35S]-GTPgamaS was determined by filtration and scintillation counting.
Independently, selected compounds were evaluated for S1P1 and S1P3 agonistic activity. The S1P1 assay system was GTPgama-S35 binding in membranes from CHO K1 cells, expressing S1P1 human receptor. The S1P3 assay system was calcium mobilization in CHO K1 cells expressing S1P3 human receptor. There was no significant background response to S1P in the CHO K1 cells with either assay. Compounds were tested initially at a concentration of 10 μM.

- EC50: 2.64 µM
Compound: CCCCCCCCc1ccc(CCC(N)(CO)CO)cc1 [FTY 720, 2-amino-2-(2-[4-octylphenyl]ethyl)-1,3-propanediol, reference compound]
